What was measured:
Experiment in all cases: Kinase Profiling Assay
Assay type in all cases: biochemical
Settings in all cases: 100 μM
PAK6(h) = PAK6(h) (Homo sapiens, UniProt Q9NQU5)
Flt3(D835Y)(h) = Flt3(D835Y)(h) (Homo sapiens, UniProt P36888, D835Y)
CDK3/cyclinE(h) = CDK3/cyclinE(h) (Homo sapiens, UniProt Q00526)
FGFR2(N549H)(h) = FGFR2(N549H)(h) (Homo sapiens, UniProt P21802, N549H)
MRCKα(h) = MRCKα(h) (Homo sapiens, UniProt Q5VT25)
Rsk3(h) = Rsk3(h) (Homo sapiens, UniProt Q15349)
ROCK-I(h) = ROCK-I(h) (Homo sapiens, UniProt Q13464)

By UniProt entry, the sequences of proteins in these tests, tags left out. Where a name states a change or a piece, a line headed by the entry shows the natural chain unless it says otherwise.
UniProt Q9NQU5: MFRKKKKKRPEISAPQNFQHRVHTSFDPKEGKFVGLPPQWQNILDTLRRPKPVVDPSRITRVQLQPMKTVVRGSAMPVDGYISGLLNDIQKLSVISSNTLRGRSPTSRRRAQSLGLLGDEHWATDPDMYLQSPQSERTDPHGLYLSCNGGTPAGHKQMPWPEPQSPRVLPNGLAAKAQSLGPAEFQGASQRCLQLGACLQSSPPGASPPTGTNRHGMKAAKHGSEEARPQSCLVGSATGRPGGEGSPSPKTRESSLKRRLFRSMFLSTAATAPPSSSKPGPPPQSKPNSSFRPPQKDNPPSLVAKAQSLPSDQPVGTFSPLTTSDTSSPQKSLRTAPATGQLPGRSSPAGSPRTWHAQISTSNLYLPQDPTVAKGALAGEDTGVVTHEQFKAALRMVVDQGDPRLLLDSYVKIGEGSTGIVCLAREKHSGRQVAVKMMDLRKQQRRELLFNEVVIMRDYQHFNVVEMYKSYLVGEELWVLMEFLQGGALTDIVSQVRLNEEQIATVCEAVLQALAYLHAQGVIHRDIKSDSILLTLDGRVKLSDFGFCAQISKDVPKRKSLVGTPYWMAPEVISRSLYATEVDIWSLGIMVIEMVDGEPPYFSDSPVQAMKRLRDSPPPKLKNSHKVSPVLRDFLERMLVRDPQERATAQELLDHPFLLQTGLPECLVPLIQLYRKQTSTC
UniProt Q00526: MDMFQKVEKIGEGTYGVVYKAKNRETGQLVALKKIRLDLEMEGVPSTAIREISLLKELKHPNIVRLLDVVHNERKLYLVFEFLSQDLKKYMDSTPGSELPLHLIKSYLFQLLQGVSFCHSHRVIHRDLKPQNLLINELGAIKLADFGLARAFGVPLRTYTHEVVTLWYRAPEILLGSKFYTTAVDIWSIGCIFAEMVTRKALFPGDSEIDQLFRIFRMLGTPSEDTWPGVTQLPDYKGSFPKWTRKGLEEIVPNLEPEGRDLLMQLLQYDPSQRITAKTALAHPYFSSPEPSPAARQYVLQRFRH
UniProt Q5VT25: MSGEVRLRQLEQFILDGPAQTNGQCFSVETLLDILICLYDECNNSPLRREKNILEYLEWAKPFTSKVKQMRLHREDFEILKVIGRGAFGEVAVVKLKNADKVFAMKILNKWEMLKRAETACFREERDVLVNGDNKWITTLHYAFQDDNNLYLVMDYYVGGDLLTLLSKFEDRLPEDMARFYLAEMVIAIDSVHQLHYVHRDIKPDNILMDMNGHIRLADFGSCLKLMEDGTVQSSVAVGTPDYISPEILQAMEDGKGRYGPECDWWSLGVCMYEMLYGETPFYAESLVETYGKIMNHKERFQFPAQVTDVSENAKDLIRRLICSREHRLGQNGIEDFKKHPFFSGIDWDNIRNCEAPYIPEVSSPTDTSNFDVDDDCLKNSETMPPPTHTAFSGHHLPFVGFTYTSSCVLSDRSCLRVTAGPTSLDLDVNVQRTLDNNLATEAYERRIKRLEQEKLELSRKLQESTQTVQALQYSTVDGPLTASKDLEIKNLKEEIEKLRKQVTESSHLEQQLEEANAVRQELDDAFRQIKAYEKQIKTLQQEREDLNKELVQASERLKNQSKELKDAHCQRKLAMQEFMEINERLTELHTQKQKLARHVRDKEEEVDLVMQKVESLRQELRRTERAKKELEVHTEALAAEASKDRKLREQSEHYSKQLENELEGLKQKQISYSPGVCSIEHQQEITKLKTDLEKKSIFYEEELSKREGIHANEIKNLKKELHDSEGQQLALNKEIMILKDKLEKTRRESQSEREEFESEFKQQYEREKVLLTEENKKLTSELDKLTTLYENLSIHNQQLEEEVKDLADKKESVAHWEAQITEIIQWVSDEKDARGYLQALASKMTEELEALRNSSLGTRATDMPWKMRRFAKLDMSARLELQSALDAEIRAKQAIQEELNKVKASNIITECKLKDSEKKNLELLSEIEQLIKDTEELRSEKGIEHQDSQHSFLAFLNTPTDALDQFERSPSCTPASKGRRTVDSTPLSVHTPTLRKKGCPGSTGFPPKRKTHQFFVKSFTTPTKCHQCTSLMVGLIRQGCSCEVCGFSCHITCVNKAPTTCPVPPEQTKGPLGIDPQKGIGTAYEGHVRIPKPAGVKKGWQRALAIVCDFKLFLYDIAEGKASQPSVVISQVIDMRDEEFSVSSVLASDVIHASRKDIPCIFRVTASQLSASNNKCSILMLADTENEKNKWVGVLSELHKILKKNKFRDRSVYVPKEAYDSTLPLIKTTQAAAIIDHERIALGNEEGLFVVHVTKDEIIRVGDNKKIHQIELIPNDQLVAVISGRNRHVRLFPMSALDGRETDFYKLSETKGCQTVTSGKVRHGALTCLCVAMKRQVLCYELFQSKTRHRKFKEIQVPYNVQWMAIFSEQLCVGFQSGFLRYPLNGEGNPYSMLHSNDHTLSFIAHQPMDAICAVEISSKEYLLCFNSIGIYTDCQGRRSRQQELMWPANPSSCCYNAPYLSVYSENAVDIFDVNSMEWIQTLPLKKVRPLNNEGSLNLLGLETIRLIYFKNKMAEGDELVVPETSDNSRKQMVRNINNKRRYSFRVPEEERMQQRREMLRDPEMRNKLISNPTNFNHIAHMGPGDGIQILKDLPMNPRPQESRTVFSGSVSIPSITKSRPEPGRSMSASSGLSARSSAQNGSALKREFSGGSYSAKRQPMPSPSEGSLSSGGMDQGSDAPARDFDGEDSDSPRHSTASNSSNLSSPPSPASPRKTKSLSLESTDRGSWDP
UniProt Q15349, whole entry: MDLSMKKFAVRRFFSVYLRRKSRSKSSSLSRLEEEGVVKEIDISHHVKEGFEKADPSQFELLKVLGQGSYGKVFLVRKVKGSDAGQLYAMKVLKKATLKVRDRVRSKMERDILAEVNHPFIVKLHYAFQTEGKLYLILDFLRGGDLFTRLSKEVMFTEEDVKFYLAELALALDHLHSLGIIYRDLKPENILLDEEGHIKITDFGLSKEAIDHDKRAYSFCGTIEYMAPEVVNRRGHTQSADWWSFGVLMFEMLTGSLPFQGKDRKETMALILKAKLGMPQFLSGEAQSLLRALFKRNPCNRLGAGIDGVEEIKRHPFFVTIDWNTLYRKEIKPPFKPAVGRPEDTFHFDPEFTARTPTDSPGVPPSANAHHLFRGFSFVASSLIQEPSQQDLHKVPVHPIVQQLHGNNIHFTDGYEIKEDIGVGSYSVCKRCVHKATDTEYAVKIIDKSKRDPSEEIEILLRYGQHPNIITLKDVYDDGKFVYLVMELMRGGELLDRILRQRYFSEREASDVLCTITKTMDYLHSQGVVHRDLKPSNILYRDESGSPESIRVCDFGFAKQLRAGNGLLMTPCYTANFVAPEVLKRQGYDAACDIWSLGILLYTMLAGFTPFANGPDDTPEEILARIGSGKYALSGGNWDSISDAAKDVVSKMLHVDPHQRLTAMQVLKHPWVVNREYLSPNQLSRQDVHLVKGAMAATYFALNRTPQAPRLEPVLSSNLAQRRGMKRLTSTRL
UniProt Q13464: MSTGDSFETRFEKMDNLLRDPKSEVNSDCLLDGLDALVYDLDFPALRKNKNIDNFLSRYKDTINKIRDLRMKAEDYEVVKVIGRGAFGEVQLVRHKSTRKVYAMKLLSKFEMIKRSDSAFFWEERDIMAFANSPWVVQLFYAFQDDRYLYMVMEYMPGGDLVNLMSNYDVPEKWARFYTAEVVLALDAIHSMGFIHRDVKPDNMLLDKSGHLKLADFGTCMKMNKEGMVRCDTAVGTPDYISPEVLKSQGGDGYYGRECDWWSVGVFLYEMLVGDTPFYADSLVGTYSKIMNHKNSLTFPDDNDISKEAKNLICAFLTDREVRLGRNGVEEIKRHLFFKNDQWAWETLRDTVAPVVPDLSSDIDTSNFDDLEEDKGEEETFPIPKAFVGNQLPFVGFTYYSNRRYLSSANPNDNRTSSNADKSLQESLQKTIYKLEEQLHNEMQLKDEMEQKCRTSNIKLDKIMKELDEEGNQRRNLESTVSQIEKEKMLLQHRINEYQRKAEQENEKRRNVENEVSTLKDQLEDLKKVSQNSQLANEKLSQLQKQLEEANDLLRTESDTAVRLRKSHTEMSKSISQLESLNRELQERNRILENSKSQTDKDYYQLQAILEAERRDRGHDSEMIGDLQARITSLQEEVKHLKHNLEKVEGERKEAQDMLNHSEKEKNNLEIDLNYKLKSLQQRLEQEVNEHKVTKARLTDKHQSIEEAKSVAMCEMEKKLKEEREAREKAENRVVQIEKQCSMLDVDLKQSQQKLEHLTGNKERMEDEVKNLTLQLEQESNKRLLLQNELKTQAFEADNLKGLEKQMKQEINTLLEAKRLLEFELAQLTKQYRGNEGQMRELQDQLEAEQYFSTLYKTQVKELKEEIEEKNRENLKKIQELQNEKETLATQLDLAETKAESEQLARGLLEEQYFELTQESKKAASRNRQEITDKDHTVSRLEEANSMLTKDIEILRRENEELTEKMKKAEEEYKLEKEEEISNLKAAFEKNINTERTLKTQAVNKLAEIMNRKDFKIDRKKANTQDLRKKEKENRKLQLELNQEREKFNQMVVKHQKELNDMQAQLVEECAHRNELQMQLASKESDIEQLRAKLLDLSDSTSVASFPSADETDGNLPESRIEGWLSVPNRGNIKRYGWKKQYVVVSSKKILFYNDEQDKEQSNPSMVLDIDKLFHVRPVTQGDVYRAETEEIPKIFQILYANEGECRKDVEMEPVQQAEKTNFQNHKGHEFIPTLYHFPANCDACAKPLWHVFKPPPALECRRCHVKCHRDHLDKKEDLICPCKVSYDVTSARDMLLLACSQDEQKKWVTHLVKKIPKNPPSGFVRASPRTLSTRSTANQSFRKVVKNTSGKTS

YARAAARQARAKALNRQLGVA (Mammalian) [MMI-0200]
% activity (PAK6(h)): 105%
% activity (Flt3(D835Y)(h)): 115%
% activity (CDK3/cyclinE(h)): 104%
% activity (FGFR2(N549H)(h)): 104%
% activity (MRCKα(h)): 103%
% activity (Rsk3(h)): 109%
% activity (ROCK-I(h)): 117%
